{"source": "patent US5700819A", "about": "“2-substituted benzothiazole derivatives and prophylactic and therapeutic agents for the treatment of diabetic complications” (Grelan Pharmaceutical Co., Ltd., priority 1994, dated 1997)", "biological_target": "T1, Aldose reductase (Sus scrofa, UniProt P80276)", "T1 construct": "Aldose reductase samples were prepared from porcine lens; from tissue; host or cells: porcine lens", "test": "Aldose Reductase Inhibition", "assay_type": "biochemical", "details": "porcine lens aldose reductase; DL-glyceraldehyde 3 mM, NADPH 0.1 mM, pH 6.2, 37° C.", "procedure": "Aldose reductase samples were prepared from porcine lens according the method by S. Hayman et al., (Journal of Biological Chemistry, 240, p. 877-882 (1965)). In brief, lens of porcine eyes were frozen (-80° C.) until employed. These lenses were homogenized with distilled water and then centrifuged at 10,000×g for 15 minutes. The supernatant was fractionated with 0 to 40% ammonium sulfate and centrifuged at 10,000×g for 10 minutes. The resultant supernatant was dialyzed overnight against 0.05M sodium chloride. The dialyzed solution was used as an aldose reductase sample. […] The mixtures were incubated at 37° C. for 2 minutes for reaction and changes in the absorbance at 340 nm were read using an auto-analyzer (Hitachi Corporation, Model 7070, Japan). The change in the absorbance of a mixed solution including 1% DMSO instead of sample compounds was expresses as 100%. […]"}
{"smiles": "CN(CC(=O)O)C(=S)CCc1nc2c(F)c(F)cc(F)c2s1", "note": "[Example 7-ii), N-[3-(4,5,7-trifluorobenzothiazol-2-yl)-1-thioxopropyl]-N-methylglycine]", "values": [{"measurement": "IC50", "result": 11, "unit": "nM"}]}
{"smiles": "O=C(O)CN(CCc1ccccc1)C(=O)CCc1nc2c(F)c(F)cc(F)c2s1", "note": "[Example 6-ii), N-[3-(4,5,7-trifluorobenzothiazol-2-yl)propionyl]-N-phenethylglycine]", "values": [{"measurement": "IC50", "result": 21, "unit": "nM"}]}
